The source of these data is PMC9609429, “HBK-10, A Compound with α1-Adrenolytic Properties, Showed Antiarrhythmic and Hypotensive Effects in Rats” (Pharmaceuticals, 2022).

The target of this assay is α2-adrenoceptor. The assay can be described thus: α2-adrenoceptor radioligand binding assay ([3H]-clonidine, rat cerebral cortex). The note with it: rat cortex tissue. On the procedure: The α1-, α2-, and β1-adrenoceptor radioligand binding assay was carried out on the rat cerebral cortex. [^3H]-prazosin (19.5 Ci/mmol, α1-adrenoceptor), [^3H]-clonidine (70.5 Ci/mmol, α2-adrenoceptor), and [^3H]-CGP-12177 (48 Ci/mmol, β1-adrenergic receptor) were used as specific ligands. The brains were homogenized using ULTRA-TURRAX homogenizer in 10 mL of an ice-cold 50 mM Tris–HCl buffer (pH 7.6). Homogenates were centrifuged at 20,000× g for 20 min (0–4 °C). Next, the cell pellet was resuspended in the Tris–HCl buffer and centrifuged again. Radioligand binding assays were performed in plates (MultiScreen/Millipore). The final incubation mixture (volume 300 μL) consisted of 240 μL of the tissue suspension, 30 μL of radioligand solution, and 30 μL of the buffer containing 7–8 concentrations of the tested compound. In order to measure the unspecific binding, 10 μM phentolamine (for [^3H]-prazosin) or 10 μM clonidine (for [^3H]-clonidine) or 1 μM of propranolol (in the case of [^3H]-CGP-12177) were used. The incubation was terminated by rapid filtration through Whatman GF/C filters using a vacuum manifold (Millipore). The filters were then washed twice with the assay buffer and placed in scintillation vials with a liquid scintillation cocktail. Radioactivity was measured in a WALLAC 1409 DSA liquid scintillation counter (Perkin Elmer, Waltham, MA, USA). […]

Regarding `Clc1cccc(Cl)c1N=C1NCCN1` [Clonidine, clonidine, reference compound], the “Adrenergic Receptors—pKi α2” value is given as 8.60.
